Antibody variant affinities, Ab-14 light chain, assay 1

The target is the same throughout: PDVDLGDISGINAS, from the HR2 region of SARS-CoV-2 spike.

Each scFv is VH, three GGGGS repeats, VL, as in the parent Ab-14, and differs from it in the CDRs of the light chain only.
VH: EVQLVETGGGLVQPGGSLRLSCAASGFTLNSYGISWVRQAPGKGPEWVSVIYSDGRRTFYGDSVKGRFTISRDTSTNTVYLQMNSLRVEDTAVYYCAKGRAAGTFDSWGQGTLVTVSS
VL: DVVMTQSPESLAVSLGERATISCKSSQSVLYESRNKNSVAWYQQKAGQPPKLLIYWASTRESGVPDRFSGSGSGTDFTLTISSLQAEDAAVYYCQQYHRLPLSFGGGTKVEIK

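The starting antibody came from a phage panning campaign against this peptide. The library (AAYL50) carries one to three amino acid substitutions per variant, with no insertions or deletions. AlphaSeq pools MATa yeast showing the antibodies with MATalpha yeast showing the peptide. Mating (16 h, 30 °C) was followed by selection of diploids and sequencing of their barcodes. Read counts were normalised to the haploid input and turned into Kd by a linear fit to BCL2-family pairs of known affinity, for each replicate. There are three technical replicates.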

Each variant is given by its three light chain CDRs, as the data file delimits them; those of the parent are KSSQSVLYESRNKNSVA, WASTRES, QQYHRLPLS.
The Kd shown is the geometric mean over detected replicates; a lower Kd is a better binder.
An entry "no signal" has no value in the source: the pair was not observed among the diploids in any replicate. This suggests poor binding but is not conclusive.
For reference, the parent read 4.4 nM as the reference entry and 48 nM as a member of this library.
Nonspecific signal, from three strains lacking the peptide, appeared in 18% of pairings of library AAYL50, centred on 15 µM (5% of these signals below 970 nM); values are not corrected for it. The control count says in how many pairings with the empty strains this scFv gave a signal.

| CDR-L1 | CDR-L2 | CDR-L3 | apparent Kd | detected | control signals |
|---|---|---|---|---|---|
| KSSQSVFYESRNTNSVA | WASTRAS | QQYHRLPLS | 1.8 nM | 3/3 | 4/9 |
| KSSQVVLYESRNKNSVA | WASTREC | QQYHTLPLS | 370 nM | 3/3 | 0/9 |
| KSSQSVLYESRNKNSVA | RASTRVS | QQYRRLPLS | 1.3 µM | 3/3 | 0/9 |
| KSSQSVLYESRNENSAA | WASTRES | QQYHRQPLS | no signal | 0/3 | 0/9 |
| KSSQSVLYESRNMNSVA | WASTRES | QQYHRLFGS | 38 nM | 3/3 | 5/9 |
| KSLQSVLYEKRNKNSVA | WASTRES | QEYHRLPLS | 240 nM | 3/3 | 2/9 |
| KSSQSVLYESRNKQSVA | WASTRTS | QQYHRLPLH | 1.0 mM | 1/3 | 1/9 |
| KSLNSVLYESRNKNSVA | WASTRES | QQYHRLKLS | no signal | 0/3 | 0/9 |
| KSSQRVVYESRNKNSVA | WASTRES | EQYHRLPLS | 580 nM | 2/3 | 1/9 |
| KSSQSVLYEDRNKNSVD | WASTGES | QQYHRLPLS | 8.7 µM | 1/3 | 0/9 |
| KSSQSVLYESRNKNSVA | WASTRIS | QQYDRLPLS | 32 nM | 3/3 | 4/9 |
| KSSQSVLYTSRNKNSVA | WASTRES | QQYHYLDLS | 4.9 µM | 1/3 | 0/9 |
| KSSQSVLYESRNKNSVA | WAMMRES | QQYHRLPLS | 38 nM | 3/3 | 2/9 |
| KSSQSVLYESRNTNSVA | WASTRES | QQLHRLPLS | 21 nM | 3/3 | 0/9 |
| KSSQSVLYESRNKNSQA | WASTRES | TQYHRLPLP | no signal | 0/3 | 1/9 |
| KSSQSVLYESENKNSFA | WASTRES | QQYHRIPLS | no signal | 0/3 | 3/9 |
| KISQSVLIESRNKNSVA | WASTRES | QQYHRLDLS | no signal | 0/3 | 1/9 |
| KSSQSVLYESRNKNSVF | WASTRES | QQYHRLPQS | no signal | 0/3 | 2/9 |
| KSSQSVVYESENKNSVA | WASTRIS | QQYHRLPLS | 610 pM | 3/3 | 0/9 |
| KSSQSVLYESRESNSVA | WASTRES | QQYHRQPLS | 22 nM | 3/3 | 0/9 |
| KSSQRVLYESRNKNSVA | MASTRES | QQYHALPLS | no signal | 0/3 | 0/9 |
| KSSQSVLYESRNKNSVA | WISTRES | QQGHRLPDS | 5.0 µM | 2/3 | 2/9 |
| KSSQSVLYESRNKNSVA | WASTDES | QQYHRLRLK | 390 µM | 2/3 | 1/9 |
| KSSQSVLKESRNKNSVA | WASTRGS | QQYHILPLS | 910 nM | 3/3 | 3/9 |
| KSSQSRLYESRNKNGVA | WASTRES | QQHHRLPLS | no signal | 0/3 | 3/9 |
| QSSQSVLYESRNKNSVA | WWSTRES | QQTHRLPLS | 6.8 µM | 1/3 | 1/9 |
| KSSQSVLYESRNKNSVA | WASTGES | QQYHILPTS | 1.6 µM | 2/3 | 1/9 |
| KASQSVLYEQRHKNSVA | WASTRES | QQYHRLPLS | 19 nM | 3/3 | 5/9 |
| KSSQSVLYESRNKNSVA | WASTREE | QQYHYLPLD | 950 nM | 2/3 | 1/9 |
| KSSQSVLYESRNKNSVK | WASTRVS | QQYHRMPLS | no signal | 0/3 | 0/9 |
| KSSTSVLYESRNKNSMK | WASTRES | QQYHRLPLS | 1.3 mM | 2/3 | 6/9 |
| KSSQSVLYESRNKQSVA | WISDRES | QQYHRLPLS | 410 µM | 3/3 | 5/9 |
| KSSQSVLYESDNKNSVA | WASTRES | QQYHPLPLS | 180 µM | 1/3 | 3/9 |
| KSSQSVLYESRNKNSVA | WDSTRES | QQYHRSALS | 77 µM | 2/3 | 4/9 |
| ESSQSVLYEPRNKNSVA | CASTRES | QQYHRLPLS | 34 nM | 3/3 | 2/9 |
| KSSQSVLYESRNKNSVA | WMSTRES | QEAHRLPLS | no signal | 0/3 | 0/9 |
| HSSQSVLYRSRNKNSVA | WASTRES | QQTHRLPLS | 17 µM | 2/3 | 3/9 |
| KSSQSVLYESRNKYSVA | WASTRES | QQYHYLLLS | no signal | 0/3 | 1/9 |
| KDSQSVLYESRNKNSVA | WASTDES | QQYHRLWLS | no signal | 0/3 | 0/9 |
| KSSQSVLYESYNKNFVA | WASTTES | QQYHRLPLS | 2.5 µM | 3/3 | 4/9 |
| KSSQSVLLEFRNKNSVA | WASTRES | NQYHRLPLS | no signal | 0/3 | 0/9 |
| KSSQSVLRESRNKNSVA | WASLRES | QQYHDLPLS | 1.5 nM | 3/3 | 2/9 |
| KESQSVLYESRNKNSVA | NESTRES | QQYHRLPLS | 640 pM | 3/3 | 2/9 |
| KSSQPVLYESNNKNSVY | WASTRES | QQYHRLPLS | no signal | 0/3 | 1/9 |
| KPSQSVVYESRNKNSVA | WASTRYS | QQYHRLPLS | 120 nM | 3/3 | 2/9 |
| KSSQSGLYESMNKNSVA | WASTREC | QQYHRLPLS | 18 nM | 3/3 | 1/9 |
| VSSQHVLYESRNKNSVA | RASTRES | QQYHRLPLS | 4.0 nM | 3/3 | 1/9 |
| VYSQSVLYESRNKNSVA | WASTRES | QQYHRLPLS | 28 nM | 3/3 | 0/9 |
| ASSQSVLYESGNKNSVA | WASTREM | QQYHRLPLS | 7.7 nM | 3/3 | 4/9 |
| KSSQSVLYESRNKNHVA | IASTRES | QQYHRLSLS | 8.5 µM | 1/3 | 4/9 |
| KSSQSVLYCSRNKNSVA | WASTREW | QQYWRLPLS | 78 nM | 3/3 | 2/9 |
| KSSVSVLYESRNKNSVA | WASTEES | QPYHRLPLS | no signal | 0/3 | 4/9 |
| KSSQSVLYESRNKNSRA | WAGTRMS | QQYHRLPLS | 120 µM | 2/3 | 5/9 |
| KSSQWVLKESRNKNSVA | WASTRES | QQYHRLVLS | 190 µM | 1/3 | 2/9 |
| MSSDSVLYESRNKNSVA | WASTRES | IQYHRLPLS | 72 µM | 2/3 | 5/9 |
| KSSQSVLFESRNKNSVA | WASTSES | YQYHRLPLS | 610 nM | 1/3 | 1/9 |
| KDSQSVLYESQNKNSVA | WASTRES | QQYHRLPLM | 11 nM | 3/3 | 1/9 |
| KSYQSVLYESRNKNSVA | VASTRES | QQYHRLPLS | 23 µM | 1/3 | 2/9 |
| KSFQSVLYESRNKNSVA | WASTRES | QQYHRFPMS | no signal | 0/3 | 0/9 |

The first 7 entries again:

{"CDR-L1": "KSSQSVFYESRNTNSVA", "CDR-L2": "WASTRAS", "CDR-L3": "QQYHRLPLS", "apparent Kd": "1.8 nM", "detected": "3/3", "control signals": "4/9"}
{"CDR-L1": "KSSQVVLYESRNKNSVA", "CDR-L2": "WASTREC", "CDR-L3": "QQYHTLPLS", "apparent Kd": "370 nM", "detected": "3/3", "control signals": "0/9"}
{"CDR-L1": "KSSQSVLYESRNKNSVA", "CDR-L2": "RASTRVS", "CDR-L3": "QQYRRLPLS", "apparent Kd": "1.3 µM", "detected": "3/3", "control signals": "0/9"}
{"CDR-L1": "KSSQSVLYESRNENSAA", "CDR-L2": "WASTRES", "CDR-L3": "QQYHRQPLS", "apparent Kd": "no signal", "detected": "0/3", "control signals": "0/9"}
{"CDR-L1": "KSSQSVLYESRNMNSVA", "CDR-L2": "WASTRES", "CDR-L3": "QQYHRLFGS", "apparent Kd": "38 nM", "detected": "3/3", "control signals": "5/9"}
{"CDR-L1": "KSLQSVLYEKRNKNSVA", "CDR-L2": "WASTRES", "CDR-L3": "QEYHRLPLS", "apparent Kd": "240 nM", "detected": "3/3", "control signals": "2/9"}
{"CDR-L1": "KSSQSVLYESRNKQSVA", "CDR-L2": "WASTRTS", "CDR-L3": "QQYHRLPLH", "apparent Kd": "1.0 mM", "detected": "1/3", "control signals": "1/9"}

The measurements come from Engelhart et al. 2022 (doi:10.1038/s41597-022-01779-4) through the FLAb antibody collection.